Patent publication US12414566B2, “Safener containing herbicidal oil dispersion” (ARYSTA LIFESCIENCE INC, priority 2017, dated 2025)

SMILES: CCCCCC(C)OC(=O)COc1ccc(Cl)c2cccnc12 (stereo not shown) [cloquintocet-mexyl]
- crystallization at low temperatures (butyl benzoate as the carrier): does not crystalize out at low temperatures
- crystallization upon dilution (butyl benzoate as the carrier): does not crystalize out upon dilution
- crystallization in the concentrated oil dispersion (dispersed in oil phase, cold temperature storage, such as 0-5° C.): crystallizes
- crystallization in water upon dilution (suspended CQM, forming cloquintocet hydrate): crystallized in water upon dilution
